The record followed here is patent publication US12358915B2, “METTL3 inhibitory compounds” (STORM THERAPEUTICS LTD., priority 2019, dated 2025).

By UniProt entry, the sequences of proteins in these tests, tags left out.
UniProt Q86U44, whole entry: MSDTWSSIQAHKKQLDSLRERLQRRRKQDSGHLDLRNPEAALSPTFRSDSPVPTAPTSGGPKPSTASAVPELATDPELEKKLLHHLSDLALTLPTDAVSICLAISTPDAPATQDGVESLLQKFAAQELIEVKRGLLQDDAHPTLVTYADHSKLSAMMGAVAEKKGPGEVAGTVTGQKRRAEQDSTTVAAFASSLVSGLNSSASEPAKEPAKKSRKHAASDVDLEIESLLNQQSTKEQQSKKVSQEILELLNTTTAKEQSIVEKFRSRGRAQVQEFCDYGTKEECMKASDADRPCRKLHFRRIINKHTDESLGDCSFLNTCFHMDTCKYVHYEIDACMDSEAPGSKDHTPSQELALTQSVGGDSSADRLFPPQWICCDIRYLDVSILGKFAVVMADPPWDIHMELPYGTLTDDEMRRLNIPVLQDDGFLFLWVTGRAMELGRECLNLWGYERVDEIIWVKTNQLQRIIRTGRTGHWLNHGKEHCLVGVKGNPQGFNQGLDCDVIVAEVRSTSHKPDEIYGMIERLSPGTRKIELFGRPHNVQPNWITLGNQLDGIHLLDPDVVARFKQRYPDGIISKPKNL
UniProt Q9HCE5, whole entry partner: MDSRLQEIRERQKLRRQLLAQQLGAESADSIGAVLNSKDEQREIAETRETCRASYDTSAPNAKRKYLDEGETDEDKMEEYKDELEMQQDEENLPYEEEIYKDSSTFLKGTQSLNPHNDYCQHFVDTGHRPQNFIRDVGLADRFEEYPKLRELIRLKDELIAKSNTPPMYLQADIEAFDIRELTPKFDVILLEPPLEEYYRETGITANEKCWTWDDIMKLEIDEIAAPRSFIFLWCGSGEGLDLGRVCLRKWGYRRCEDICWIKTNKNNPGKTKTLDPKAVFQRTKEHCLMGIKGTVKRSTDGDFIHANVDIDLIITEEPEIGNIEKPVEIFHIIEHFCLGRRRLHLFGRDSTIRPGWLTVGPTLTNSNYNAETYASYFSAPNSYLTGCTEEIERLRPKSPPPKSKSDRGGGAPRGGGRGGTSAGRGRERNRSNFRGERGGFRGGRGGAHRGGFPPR

The assay has as its target METTL3/14 (Homo sapiens, UniProt Q86U44). The assay can be described thus: METTL3/14 methyltransferase assay (METTL3_14 RFMS, RapidFire mass spectrometry).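 Note: recombinant His-tagged METTL3 with FLAG-tagged METTL14 from baculovirus, SAH product quantified by mass spectrometry against isotope-labelled internal standards, 60 min at room temperature, scaled between no-RNA and DMSO-only wells.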 The format is biochemical. The settings on record: read-out: METTL3_14 RFMS IC50; 5 nM METTL3/14, 0.2 μM RNA substrate, 0.5 μM SAM; lower limit of the assay IC50=5 nM; Compounds 63-265.

Broadly, the IC50 is the concentration that inhibits the measured activity by half. Turning to `O=C(NCc1cn2cc(CNC3CCCCC3)ccc2n1)c1cc(=O)c2ccccc2o1`, the IC50 stood at 0.068 µM.
